Target: PRMT5/MEP50 (Homo sapiens (Human), UniProt O14744)
Experiment: PRMT5 Biochemical Assay (PRMT5/MEP50 enzyme assay on peptide substrate, 3H-SAM Flashplate)
Settings: PRMT5/MEP50 4 nM, 3H-SAM 75 nM, peptide 40 nM
Excerpt: General Materials. S-adenosylmethionine (SAM), S-adenosylhomocysteine (SAH), bicine, KCl, Tween20, dimethylsulfoxide (DMSO), bovine skin gelatin (BSG), and Tris(2-carboxyethyl)phosphine hydrochloride solution (TCEP) were purchased from Sigma-Aldrich at the highest level of purity possible. ^3H-SAM was purchase from American Radiolabeled Chemicals with a specific activity of 80 Ci/mmol. 384-well streptavidin Flashplates were purchased from PerkinElmer.
Substrates. Peptide representative of human histone H4 residues 1-15 was synthesized with a C-terminal linker-affinity tag motif and a C-terminal amide cap by 21st Century Biochemicals. […] The sequence was Ac-[…][K-Biot]-amide (SEQ ID NO.:3).
Full-length human MEP50 (NM_024102) clone was amplified from a human testis cDNA library incorporating a 5′ sequence encoding a 6-histidine tag (MHHHHHH) (SEQ ID NO.:5) fused directly to Arg 2 of MEP50. […]
The assays were all performed in a buffer consisting of 20 mM Bicine (pH=7.6), 1 mM TCEP, 0.005% BSG, and 0.002% Tween20, prepared on the day of use. […] The plates were then read in a PerkinElmer TopCount plate reader to measure the quantity of ^3H-labeled peptide bound to the Flashplate surface, measured as disintegrations per minute (dpm) or alternatively, referred to as counts per minute (cpm). […]

Sequences of proteins named here, by UniProt entry; tags and fusion partners are left off. A line that says so, or that is headed by a name, gives the form on record, which may keep a tag or linker.
UniProt O14744, other isoform, or with tags, fused parts or gaps: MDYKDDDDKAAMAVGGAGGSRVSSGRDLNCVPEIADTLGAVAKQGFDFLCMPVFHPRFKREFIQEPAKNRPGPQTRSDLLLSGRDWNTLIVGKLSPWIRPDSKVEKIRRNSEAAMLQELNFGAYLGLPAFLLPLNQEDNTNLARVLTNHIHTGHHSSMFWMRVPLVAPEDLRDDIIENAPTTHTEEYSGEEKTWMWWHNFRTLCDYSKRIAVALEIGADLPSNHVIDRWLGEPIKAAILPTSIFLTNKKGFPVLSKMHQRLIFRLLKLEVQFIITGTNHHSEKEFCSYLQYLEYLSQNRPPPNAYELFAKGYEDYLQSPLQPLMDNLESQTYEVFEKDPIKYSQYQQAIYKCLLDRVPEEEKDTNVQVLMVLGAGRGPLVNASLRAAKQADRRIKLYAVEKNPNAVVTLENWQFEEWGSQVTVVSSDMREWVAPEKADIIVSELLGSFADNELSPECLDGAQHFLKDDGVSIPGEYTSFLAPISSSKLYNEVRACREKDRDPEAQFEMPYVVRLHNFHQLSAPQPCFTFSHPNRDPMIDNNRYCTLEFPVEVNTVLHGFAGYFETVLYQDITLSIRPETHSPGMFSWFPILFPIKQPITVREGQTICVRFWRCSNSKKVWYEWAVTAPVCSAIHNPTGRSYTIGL

SMILES: N[C@H](C(=O)NC[C@@H](O)CN1CCc2ccccc2C1)c1ccccc1 [Compound 63]
- IC50: 10 to 50 µM

From patent US9765068B2, “PRMT5 inhibitors and uses thereof” (Epizyme, Inc., priority 2012, dated 2017)
